This passage reports Tmax results from US20260306514A1, “ORAL PHARMACEUTICAL FORMULATIONS CONTAINING 4-((2-HYDROXY-3-METHOXYBENZYL)AMINO) BENZENESULFONAMIDE DERIVATIVES” (Cadrenal Therapeutics, Inc., priority 2022, published 2026).

A short description of the series: Rat PK of Compound 1, IV and oral solution (Table 2). The arrangement: species or system rats. The conditions noted are these: in vivo, 30 mg/Kg. From the text:
These compounds have low solubility in water. Below is a comparison of oral bioavailability of Compound 1 Suspension (Table 1) versus Solution (Table 2).
The intravenous formulation uses cyclodextrin (CD) to increase solubility. However, a drug loading of <10% is not suitable for oral formulation. The inventors explored a new approach to oral formulation without guidance from the art including lipid solubility screening in various non-aqueous vehicles, self micro-emulsifying systems with oils, surfactants, and co-surfactants, amorphous solid dispersions via hot melt and spray drying, micronization, and in silico screen of supercritical fluid nanoparticle engineering. […] The pharmaceutical acceptable carrier can be a polymer.

With `COc1cccc(CNc2ccc(S(=O)(=O)Nc3nc4ccccc4s3)cc2)c1O` [Compound 1, N-(benzo[d]thiazol-2-yl)-4-((2-hydroxy-3-methoxybenzyl)amino)benzenesulfonamide], the time of peak concentration (Tmax) amounted to 15 min.

The Tmax is the time at which the peak concentration occurs.
